This is a sample that favours compounds with a hit; in the whole collection about 1.3% have one here.
hERG WT inh: qHTS for Inhibitors of KCHN2 3.1: Wildtype qHTS; Voltage-gated inwardly rectifying potassium channel KCNH2 (Homo sapiens), Q12809; U2OS, BacMam KCNH2, thallium flux FluxOr; hits give low values; activity change, % at 1.84 µM; 340,000 compounds, 0.37% hits; AID 720551, 2013;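 active = maximum activity change below -70%; inconclusive = maximum activity change between -70% and -50%; inactive = maximum activity change above -50%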; also: % is scaled to controls: 0 for no effect and ±100 for the full control effect
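U2OS cells were transduced with wild-type KCNH2 virus (2.03 x 10^8 / mL) for 4 h at room temperature, then cultured overnight at 37 C. Thallium flux was read with FluxOr dye. Rate constants were normalized to DMSO controls.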
Rango dissoc inh: qHTS Assay for Inhibitors of RanGTP induced Rango (Ran-regulated importin-beta cargo) - Importin beta complex dissociation; 340,000 compounds, 0.071% hits; Potency, µM (highest dose often 46.1 µM), without a hit: at the highest dose activity change, negative = inhibition; Biochemical FRET Rango-importin beta, RanGTP-induced dissociation; Snurportin-1 (Homo sapiens) + GTP-binding nuclear protein Ran (Homo sapiens) + Importin …; also: potency is read from the fitted curve at half-maximal effect; % of control where 0% means no effect; nearly all actives have a fitted effect of over 45% in size
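Quantitative HTS using a FRET biosensor: 0.1 uM Rango, 0.25 uM importin beta, 0.6 uM Ran, 2 mM GTP, 0.2 uM RCC1 final, PBS with DTT, Tween-20 and BSA. Post-read taken 45 min after Ran addition.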
Rango-impB inh: qHTS Assay for Inhibitors of Rango (Ran-regulated importin-beta cargo) - Importin beta complex formation | Potency, µM (doses to about 92.2 µM), for inactives: at the highest dose inhibition of complex formation | Importin subunit beta-1 (Homo sapiens), Q14974 | Rango CFP/YFP FRET sensor + importin beta, 45 min | AID 540263, 2011 | 340,000 compounds, 0.031% hits;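 also: potency is read from the fitted curve at half-maximal effect; 0% = DMSO wells and 100% = buffer wells lacking importin beta; nearly all actives have a fitted effect of over 15% in size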
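FRET biosensor (snurportin 1 IBB flanked by EYFP and cerulean), 50 nM, with compound 5 min, then 0.125 microM importin beta in PBS, 1 mM DTT, 0.02% Tween-20, 0.1% BSA. CFP/YFP ratio read after 45 min at room temperature; pre-read flags interference.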
KCNH2 3.1 block: qHTS for Inhibitors of KCHN2 3.1: Mutant qHTS | Potassium voltage-gated channel subfamily H member 2, brain isoform KCNH2 3.1 (human) | U2OS KCNH2 3.1, thallium flux FluxOr; hits give low values | activity change, % (tested at about 1.8 µM) | 340,000 compounds, 0.95% hits | AID 720553, 2013;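 active = maximum activity change below -70%; inconclusive = maximum activity change from -70% to -50%; inactive = maximum activity change above -50%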;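 also: thallium influx rate constant from kinetic fluorescence after stimulation buffer; % is scaled to controls: 0 for no effect and ±100 for the full control effect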
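Measured as rate of thallium-driven FluxOr signal in transduced U2OS cells carrying the 3.1 channel, read kinetically for 2 min upon stimulation; values are rate constants scaled to DMSO control wells.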
* marks the source's active call; other numbers are inactive results; ? = inconclusive; nt = no result given. Unless noted, calls follow the shape of the full dose curve.

Protein sequences, listed by entry. Tags and fused reporters are not part of them.
Importin subunit beta-1 (Homo sapiens), Q14974, UniProt Q14974, whole entry, looked up: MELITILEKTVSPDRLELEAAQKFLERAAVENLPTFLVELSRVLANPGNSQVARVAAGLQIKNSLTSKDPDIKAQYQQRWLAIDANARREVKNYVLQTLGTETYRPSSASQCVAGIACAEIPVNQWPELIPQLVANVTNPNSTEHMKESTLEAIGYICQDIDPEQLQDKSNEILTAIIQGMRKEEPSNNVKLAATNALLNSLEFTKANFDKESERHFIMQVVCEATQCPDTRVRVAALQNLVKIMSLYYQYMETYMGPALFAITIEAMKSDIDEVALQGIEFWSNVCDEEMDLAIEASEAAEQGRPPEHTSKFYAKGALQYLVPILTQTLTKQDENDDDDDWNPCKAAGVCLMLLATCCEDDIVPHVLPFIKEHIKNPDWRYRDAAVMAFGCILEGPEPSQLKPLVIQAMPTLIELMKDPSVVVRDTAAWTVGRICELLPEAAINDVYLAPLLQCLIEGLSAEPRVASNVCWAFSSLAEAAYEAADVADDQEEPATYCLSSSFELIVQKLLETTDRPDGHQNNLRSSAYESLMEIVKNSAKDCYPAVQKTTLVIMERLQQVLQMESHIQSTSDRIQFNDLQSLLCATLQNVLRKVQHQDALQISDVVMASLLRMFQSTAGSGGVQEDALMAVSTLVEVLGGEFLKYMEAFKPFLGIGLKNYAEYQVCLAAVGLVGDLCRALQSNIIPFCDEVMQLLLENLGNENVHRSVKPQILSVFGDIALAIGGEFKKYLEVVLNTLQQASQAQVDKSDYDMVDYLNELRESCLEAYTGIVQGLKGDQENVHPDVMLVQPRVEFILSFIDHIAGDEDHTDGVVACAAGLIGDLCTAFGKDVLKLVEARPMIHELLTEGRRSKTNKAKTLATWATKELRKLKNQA

Values run as follows: Rango-impB inh | Rango dissoc inh | KCNH2 3.1 block | hERG WT inh
1) COC(=O)C1=C(C)NC(=O)NC1c1c(O)ccc2ccccc12 (centres undefined)
    ? | -19.8% | -2.0 | 10.6
2) CC(C)CC1NC(=O)c2cc3ccccc3cc2-n2c1nc1cc(Cl)ccc1c2=O (centres undefined)
    nt | nt | -35.7 | 10.7
3) O=C(Nc1cccc(NC(=O)c2cc([N+](=O)[O-])ccc2Cl)n1)c1cc([N+](=O)[O-])ccc1Cl
    20.6µM* | 1.0% | -2.1 | 0.7
4) Cc1cc(NC(=O)c2cc([N+](=O)[O-])ccc2Cl)no1
    1.1% | 8.1% | 17.2 | -1.0
5) Cc1ccc([C@H]2N[C@]3(CCCN(Cc4cccn4C)C3=O)[C@H]3C(=O)N(Cc4ccccc4)C(=O)[C@@H]23)cc1
    nt | nt | -30.9 | -71.1*
6) Cn1cccc1CN1CCC[C@]2(N[C@H](c3ccccc3)[C@@H]3C(=O)N(Cc4ccccc4)C(=O)[C@@H]32)C1=O
    nt | nt | -4.2 | -0.3
7) Cc1nc2ccc(F)cc2cc1C(=O)Nc1ccc(Cl)c(Cl)c1
    -1.1% | -13.2% | 4.4 | -130.0*
8) Cc1nc2ccc(F)cc2cc1C(=O)NCc1ccco1
    0.6% | 0.7% | 4.7 | -1.1
9) COc1ccccc1NC(=O)C(C)N1CCN(C/C=C/c2ccccc2)CC1 (centres undefined)
    0.3% | -8.7% | -94.7* | -81.8*
10) COc1ccc(NC(C)=O)cc1S(=O)(=O)N1CCN(C/C=C/c2ccccc2)CC1
    6.5% | 11.8% | -73.3* | 12.4
11) COc1ccc(NC(C)=O)cc1S(=O)(=O)N1CCN(C(=O)c2ccccc2F)CC1
    6.1% | -1.9% | 6.9 | 2.8
12) COc1ccccc1C(=O)NCC(=O)N1CCN(C/C=C/c2ccccc2)CC1
    -6.5% | 1.4% | -18.5 | -13.9
13) COc1ccc(NC(=O)CSc2ccccc2)cc1S(=O)(=O)N1CCCCC1
    23.1µM* | 0.2% | -24.4 | -6.0
14) Cn1nnnc1SCCNCc1ccc(Cl)cc1
    -0.8% | -10.6% | -95.0* | 0.5
15) Cc1ccc(CSc2nnnn2C)cc1
    -2.4% | -5.8% | -98.0* | 2.2

Profiles as entered above. Screens in order: Rango-impB inh, Rango dissoc inh, KCNH2 3.1 block, hERG WT inh
CC(C)CC1NC(=O)c2cc3ccccc3cc2-n2c1nc1cc(Cl)ccc1c2=O (centres undefined) across the screens: nt, nt, -35.7, 10.7
COC(=O)C1=C(C)NC(=O)NC1c1c(O)ccc2ccccc12 (centres undefined) across the screens: ?, -19.8%, -2.0, 10.6
COc1ccccc1NC(=O)C(C)N1CCN(C/C=C/c2ccccc2)CC1 (centres undefined) across the screens: 0.3%, -8.7%, -94.7*, -81.8*
COc1ccccc1C(=O)NCC(=O)N1CCN(C/C=C/c2ccccc2)CC1 across the screens: -6.5%, 1.4%, -18.5, -13.9

(cont.)
Values run as follows: Rango-impB inh | Rango dissoc inh | KCNH2 3.1 block | hERG WT inh
16) C=C1CCN([C@@H](Cc2ccccc2)C(=O)NCc2ccc(Cl)cc2)S(=O)(=O)c2ccccc21
    -0.3% | 5.3% | -70.4* | -15.2
17) C=C1CCN([C@@H](Cc2ccccc2)C(=O)NCc2ccccc2)S(=O)(=O)c2ccccc21
    -0.2% | 1.0% | -10.8 | 2.5
18) CC(C)Oc1ccc(S(=O)(=O)N2CCOCC2)cc1NC(=O)CCCSc1ccccc1
    -0.7% | -9.1% | -72.2* | -0.6
19) CC(=O)NCCC(=O)Nc1cc(S(=O)(=O)N2CCCCC2)ccc1Oc1ccccc1
    1.6% | 7.5% | -16.8 | -70.7*
20) Cc1ccccc1SCC(=O)OCC(=O)Nc1sccc1C(N)=O
    -0.4% | -2.4% | -74.2* | 12.6
21) CCN(CC)CCN1C(=O)/C(=C\c2ccc(Cl)c([N+](=O)[O-])c2)SC1=Nc1ccc(OC)cc1
    0.4% | 13.8% | -99.1* | -47.4
22) O=C(CSc1nc2ccccc2c(=O)n1Cc1ccco1)N1CCCCCC1
    -2.1% | 0.9% | -80.5* | -7.6
23) CCc1cc2c(=O)n(Cc3ccco3)c(SCC(=O)N3CCCc4ccccc43)nc2s1
    4.9% | -15.4% | -77.4* | -8.4
24) CCc1cc2c(=O)n(Cc3ccco3)c(SCC(=O)N(C)C3CCS(=O)(=O)C3)nc2s1 (centres undefined)
    -2.3% | 9.5% | -110.6* | -89.5*
25) CCC(NC(=O)c1cc(COc2ccc(F)cc2Cl)on1)c1ccncc1 (centres undefined)
    -2.3% | -0.5% | -40.2 | 9.0
26) C=CCOc1ccc(/C=C/C(=O)N2CCCN(S(=O)(=O)c3c(C)noc3C)CC2)cc1
    -0.5% | -16.7% | 1.6 | 8.6
27) Cc1ccc(S(=O)(=O)/C(C#N)=C/c2c(N3CCC(C(N)=O)CC3)nc3c(C)cccn3c2=O)cc1
    ? | ? | -3.1 | 19.9
28) Cc1ccc(S(=O)(=O)/C(C#N)=C/c2c(N3CCC(C(N)=O)CC3)nc3ccccn3c2=O)cc1
    ? | 13µM* | -7.8 | 8.7
29) CC(C)(C)NC(=O)COC(=O)c1ccc2c(c1)C(=O)N(Cc1ccco1)C2=O
    -0.5% | 2.3% | 0.1 | 7.0
30) Cc1ccc(-n2nnnc2SC(C)C(N)=O)c(C)c1 (centres undefined)
    -3.1% | -16.0% | -75.5* | -2.9
31) CC(=O)Nc1ccc(Nc2nc(-c3sc(C)nc3C)cs2)cc1
    1.2% | -14.4% | -1.0 | -3.2
32) CC(=O)c1ccc(Nc2nc(-c3sc(C)nc3C)cs2)cc1
    nt | nt | 5.4 | -133.5*
33) C[C@@H]1CCCCO[C@H](CN(C)S(=O)(=O)c2cn(C)cn2)[C@@H](C)CN([C@H](C)CO)C(=O)c2cc(NC(=O)c3ccncc3)ccc2O1
    nt | nt | -2.2 | 0.1
34) Cc1ccc(NC(=O)CN2C(=O)NC(Cc3c[nH]c4ccccc34)C2=O)cc1 (centres undefined)
    -4.7% | 1.5% | -100.6* | -25.7
35) O=C(CN1C(=O)NC(Cc2c[nH]c3ccccc23)C1=O)Nc1ccccc1Br (centres undefined)
    2.4% | 7.9% | -8.3 | 28.1
36) CC(C)c1ccc(/C=C2\SC(=S)N(CCC(=O)NCCCn3ccnc3)C2=O)cc1
    2.4% | -9.8% | -77.4* | -1.1
37) O=C(CCN1C(=O)/C(=C/c2ccccc2)SC1=S)Nc1ccccn1
    -1.0% | 14.6µM* | -19.9 | -7.1
38) CCn1c(SCC(=O)Nc2ccc3c(c2)OCO3)nnc1C(C)C
    -0.6% | 0.0% | 9.4 | 3.3
39) OCC1(CCOc2ccccc2)CCN(Cc2ccncc2)CC1
    0.5% | ? | -1.1 | 29.8
40) CSc1ccc(CN2CCC(CO)(CCOc3ccccc3)CC2)cc1
    4.6% | -2.5% | -100.2* | -109.8*
41) OCC1(CCOc2ccccc2)CCN(Cc2ccc(OC(F)F)cc2)CC1
    4.7% | 11.9% | -110.8* | -131.0*
42) OCC1(CCOc2ccccc2)CCN(Cc2cc(Cl)ccc2O)CC1
    -0.9% | -2.7% | 4.4 | 5.0
43) OCC1(CCOc2ccccc2)CCN(Cc2ccccc2OC(F)F)CC1
    -3.7% | -0.8% | -99.0* | 4.7
44) C=CCOc1ccccc1CN1CCC(CO)(CCOc2ccccc2)CC1
    0.4% | 11.8% | -80.5* | ?
45) Cc1ccc(S(=O)(=O)NC2CC(C)(C)N(O)C(C)(C)C2)cc1
    0.0% | 6.8% | -20.9 | -0.8
46) CCN(C(=O)COC(=O)CCS(=O)(=O)c1ccc(C)cc1)C1CCS(=O)(=O)C1 (centres undefined)
    0.4% | -10.9% | nt | -2.8
47) O=C(Nc1ccn(CCCN2CCN(c3ncccn3)CC2)c(=O)n1)OCc1ccccc1
    nt | nt | -2.4 | -73.7*
48) COc1ccc(C(=O)Nc2nc3ccc4nc(C)sc4c3s2)cc1
    0.0% | 10.4% | -94.1* | 11.8
